Here are results for one substance from patent US20090304692A1, “TRIAZINE COMPOUNDS AS PI3 KINASE AND MTOR INHIBITORS” (Wyeth, priority 2008, published 2009).

This assay deals with Human mTOR (FLAG-TOR) (Homo sapiens, UniProt P42345). Put plainly: mTOR kinase assay (DELFIA format, purified enzyme). The format is biochemical.

For “4-{[(4-{4-morpholin-4-yl-6-[(3S)-tetrahydrofuran-3-yloxy]-1,3,5-triazin-2-yl}phenyl)carbamoyl]amino}-N-(2-pyrrolidin-1-ylethyl)benzamide [Example 521]”, it took 0.3 nM to reach half-maximal inhibition (IC50).
